Tests used:
[1] = target: T1, 5-hydroxytryptamine receptor 2A (Rattus norvegicus, UniProt P14842); experiment: Displacement of [3H]ketanserin from 5HT2A receptor in Sprague-Dawley rat brain by liquid scintillation spectroscopy
[2] = target: 5-hydroxytryptamine receptor 2A (Rattus norvegicus) (UniProt P14842); experiment: Agonist activity at Sprague-Dawley rat 5HT2A receptor by drug discrimination assay; assay type: functional; conditions: filed as agonist
[3] = target: T1, 5-hydroxytryptamine receptor 2A; experiment: Displacement of [3H]MDL100907 from 5HT2A receptor in Sprague-Dawley rat brain by liquid scintillation spectroscopy
Procedure, shortened: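 Frontal cortex from male Sprague-Dawley rat brains, washed in 50 mM Tris-HCl pH 7.4 and resuspended in buffer with 0.5 mM Na2EDTA, 10.0 μM pargyline, 5.7 mM CaCl2 and 0.1% ascorbate. Incubated with 0.2 nM [3H]MDL 100,907 for 15 min at 37 °C. Cinanserin (10 μM) defined nonspecific binding. Bound label was collected by GF/C filtration and counted. Values from ≥3 experiments, each in triplicate.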

Protein sequences, listed by entry. Tags and fused reporters are not part of them.
UniProt P14842, whole entry: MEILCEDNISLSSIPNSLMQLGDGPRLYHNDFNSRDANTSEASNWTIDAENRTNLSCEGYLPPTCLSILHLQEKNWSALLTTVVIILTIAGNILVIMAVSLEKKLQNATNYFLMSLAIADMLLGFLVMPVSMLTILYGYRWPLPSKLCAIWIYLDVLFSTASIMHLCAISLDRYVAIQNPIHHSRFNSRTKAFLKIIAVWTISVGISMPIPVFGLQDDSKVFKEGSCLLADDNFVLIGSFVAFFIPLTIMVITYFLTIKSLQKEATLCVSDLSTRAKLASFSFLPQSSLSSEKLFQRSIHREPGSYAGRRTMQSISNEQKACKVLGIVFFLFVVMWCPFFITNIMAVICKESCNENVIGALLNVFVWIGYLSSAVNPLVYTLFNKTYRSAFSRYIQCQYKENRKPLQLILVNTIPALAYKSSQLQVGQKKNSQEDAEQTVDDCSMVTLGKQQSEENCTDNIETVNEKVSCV

SMILES	Ki [1]	Efficacy [2]	Ki [3]
CCc1cc(OC)c(CC(C)N)cc1OC (racemic)	100 nM		
COc1cc(CC(C)N)c(OC)cc1C (racemic) [DOM]		Agonist	
Cc1nc2sccn2c(=O)c1CCN1CCC(=C(c2ccc(F)cc2)c2ccc(F)cc2)CC1 [RITANSERIN]	1.7 nM		36 nM

Source: ChEMBL document CHEMBL1149846, “The role of lipophilicity in determining binding affinity and functional activity for 5-HT2A receptor ligands” (Bioorg Med Chem, 2008)
